These are literature values, as cited in paper PMC7285485, “Antifungal and Antibiofilm Activities and the Mechanism of Action of Repeating Lysine-Tryptophan Peptides against Candida albicans” (Microorganisms, 2020).

This data set has as its system red blood cells. To be noted: 200 µM peptide, ref [35]; cited from earlier work. From the text:
Furthermore, it maintained its antifungal activity in physiological salt concentrations and at low pH values.

SMILES strings stand for the structures.

For the compound `CC[C@H](C)[C@H](NC(=O)CN)C(=O)NCC(=O)N[C@@H](C)C(=O)N[C@H](C(=O)N[C@@H](CC(C)C)C(=O)N[C@@H](CCCCN)C(=O)N[C@H](C(=O)N[C@@H](CC(C)C)C(=O)N[C@H](C(=O)N[C@H](C(=O)NCC(=O)N[C@@H](CC(C)C)C(=O)N1CCC[C@H]1C(=O)N[C@@H](C)C(=O)N[C@@H](CC(C)C)C(=O)N[C@H](C(=O)N[C@@H](CO)C(=O)N[C@@H](Cc1c[nH]c2ccccc12)C(=O)N[C@H](C(=O)N[C@@H](CCCCN)C(=O)N[C@@H](CCCNC(=N)N)C(=O)N[C@@H](CCCCN)C(=O)N[C@@H](CCCNC(=N)N)C(=O)N[C@@H](CCC(N)=O)C(=O)N[C@@H](CCC(N)=O)C(N)=O)[C@@H](C)CC)[C@@H](C)CC)[C@@H](C)O)[C@@H](C)O)C(C)C)C(C)C` [Melittin, melittin, reference compound], the Hemolysis was 100%.
